# Measured affinities in a library of Ab-14 light chain variants

Target peptide (SARS-CoV-2 spike, HR2 region): PDVDLGDISGINAS

Ab-14 is the parent antibody, in scFv form: VH, then the linker GGGGSGGGGSGGGGS, then VL. The heavy chain is unchanged in all variants.
VH: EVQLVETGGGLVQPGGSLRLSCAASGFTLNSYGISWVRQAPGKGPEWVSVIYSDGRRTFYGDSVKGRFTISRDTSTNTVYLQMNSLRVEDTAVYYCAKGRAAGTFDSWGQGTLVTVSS
VL: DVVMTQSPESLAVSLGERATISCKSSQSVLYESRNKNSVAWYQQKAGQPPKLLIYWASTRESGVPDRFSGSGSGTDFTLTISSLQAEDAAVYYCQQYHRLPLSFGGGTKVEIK

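Phage display of a naive human antibody library on the peptide gave the parent. Designed CDR sequences, proposed from the first random library and measured here. Group labels follow the data file (Ctrl: baseline library sampled from a position-specific scoring matrix, with some repeated check sequences; Rand: our label for a block that the file lists under HC and that is probably the random mutants of the ten best first-round binders; En: ensemble of fine-tuned language models; GP: Gaussian process model; HC: hill climbing; Gen: genetic algorithm; Gibbs: Gibbs sampling; a sequence that several methods proposed may carry one label only). In AlphaSeq, yeast of one mating type display the scFv and yeast of the other type display the target. Binding brings cells together so that they mate, and sequencing counts the barcode pairs among the diploids. The ratio of observed to expected reads was calibrated, replicate by replicate, on BCL2-family standards whose Kd was known from biolayer interferometry. The assay was run in six technical replicates.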

The parent's light chain CDRs are KSSQSVLYESRNKNSVA, WASTRES, QQYHRLPLS; each variant's own CDRs replace them letter for letter.
Affinities are written as log10 Kd with Kd in nM; a lower number is a better binder.
Averages over replicates are reported, and they cover detected replicates only.
"nd" marks a missing value. The strain was present, yet no cells mated with the target were sequenced in any replicate, which points to weak or no binding.

CDR-L1 | CDR-L2 | CDR-L3 | group | mean log10 Kd (nM) | detected | empty controls
TITGMVEEIETRQKNIA | EGEFRCM | QQYSRLPLS | En_Gibbs | 2.25 | 4 of 6 | 0 of 18
KSSGSVMGEDMNKNSVA | QASKRES | QQYHRLPLS | GP_Gibbs | 0.23 | 6 of 6 | 1 of 18
KESQSVLKESTEKNSVA | WASTLES | NQYHRLPLS | Ctrl | nd | 0 of 6 | 0 of 18
YLSINEVSDSNNVSQVA | EAETSVA | QQYHHLPLI | En_Gibbs | 1.16 | 6 of 6 | 1 of 18
TISQSLLMQTSHKNSVA | GEETRYA | QQYHRLPLS | En_HC | -0.03 | 6 of 6 | 0 of 18
KSSQSVFYEGMNKNSVA | KASTRES | QQYHRLPLS | Ctrl | 0.40 | 6 of 6 | 0 of 18
RLRELNFYSGNARNNIA | DAHIHEV | QQYSQLPLF | En_Gibbs | 0.18 | 6 of 6 | 2 of 18
MLSEVLHMLGVKKNSIA | DLVLRAN | QQYHRLPLG | En_Gen | 1.81 | 1 of 6 | 0 of 18
KMSDSVLYESRNKNSVA | AASTRES | QQYARLPLS | Ctrl | -0.17 | 6 of 6 | 3 of 18
KSSISYLYESGNKNSVA | NASTRES | QQYHRLPLS | GP_HC | 0.25 | 6 of 6 | 0 of 18
MISQLINMGQFAINSVA | QAETRCN | QQYDRLPLT | En_Gen | nd | 0 of 6 | 0 of 18
SIYDVTGMESRNKNPIA | DVSTRPS | QQYDRLPLS | En_HC | 2.18 | 1 of 6 | 1 of 18
KFAYGLDYNNAHKSAVA | HADIRVI | QQYFRLPLD | En_Gibbs | nd | 0 of 6 | 1 of 18
KSSQSVLFEERNKNSVA | DASTRES | QQYHRLPLS | GP_HC | 0.30 | 6 of 6 | 0 of 18
KLSGSMLYESRNKNSVA | DASTRES | QQYHRLPLS | GP_Gen | -0.40 | 6 of 6 | 1 of 18
NLSMELEDMGVKTGSIA | ENQLTEY | QQYARLPLM | En_Gibbs | nd | 0 of 6 | 0 of 18
KASPSEEYESRNKNSVA | NASYRLE | QQYHRLPLS | GP_Gibbs | 0.97 | 6 of 6 | 1 of 18
KISQSVLYESRNKNSVA | DASTRES | QTYHRLPLL | Ctrl | -0.04 | 6 of 6 | 0 of 18
KSSASVEYQERLINSVA | EASQRES | QQYHRLPLS | GP_Gibbs | 0.74 | 6 of 6 | 1 of 18
KFSQSWLYESRNKNSVA | GASFRES | QQYHRLPLS | GP_HC | -0.03 | 6 of 6 | 0 of 18
KSSHSVLYESTLKNSVA | WASTRES | QQYHRLPLS | Ctrl | 2.05 | 6 of 6 | 0 of 18
KLEMSWLYESRNKNSVA | NASTRES | QQYHRLPLS | GP_Gen | 0.02 | 6 of 6 | 2 of 18
KSSQSVLMESRNKNSVA | HASTRES | QQYHRLVLS | Ctrl | nd | 0 of 6 | 0 of 18
KVSQLVLMESRNKNSVA | EASTRES | QQYHRLPLS | GP_HC | -0.50 | 6 of 6 | 0 of 18
KLVNSTLYESRQKNSVA | AASTRES | QQYHRLPLS | GP_HC | 0.91 | 6 of 6 | 1 of 18
MFSQSVMYGSFYRNSVA | QTSTRED | QQYDRLPLS | En_HC | 1.02 | 6 of 6 | 0 of 18
KSSQSYLDESFNKNSVA | WASTRES | QQYHRLPLG | Ctrl | nd | 0 of 6 | 1 of 18
KSEDGVDDESRNDNQVA | NASTRLS | QQYHRLPLS | GP_Gibbs | 0.47 | 6 of 6 | 0 of 18
RLSQSVLYESRNKNSVA | DASTRES | QQYHRLPLS | GP_HC | -0.40 | 6 of 6 | 1 of 18
HFAYPLQSLYVSKQNVA | NASTVMT | QHYNRLPLS | En_Gibbs | 0.80 | 6 of 6 | 0 of 18
KLQQSVPYESRNKNSVA | EASTRCS | QQYHRLPLS | GP_Gen | -0.08 | 6 of 6 | 0 of 18
KLRHHNLDFYEHENNIA | GESMRAV | QQYYRLPLN | En_Gibbs | 1.69 | 6 of 6 | 0 of 18
KMSQSVLYESGNKNSVA | TGSTRES | QQYHRLPLS | Ctrl | 0.12 | 6 of 6 | 1 of 18
KSPQSVLYESRNKNSVA | DASTRED | QSYHRLPLS | GP_HC | -0.16 | 6 of 6 | 2 of 18
KLDHYKLGENGMRGSIA | NMTIREY | QQYFHLPLF | En_Gibbs | 0.50 | 6 of 6 | 2 of 18
KSSQSVRYESMNKNSVA | WASTRES | QQYCRLPLS | Ctrl | 3.15 | 2 of 6 | 0 of 18
KSAQSVLYESRNKNSVA | GGSTRES | QQYHRLPLS | Ctrl | 0.39 | 6 of 6 | 0 of 18
KFNISKEGVTSYGKSIA | GAQTIDE | QQYDRLPLA | En_Gibbs | 1.35 | 6 of 6 | 0 of 18
KSSQSILYESVNSNSVA | HASTRES | QQYHRLPLS | GP_HC | 0.41 | 6 of 6 | 1 of 18
TISQMFLGQSRNRNSVA | QASTRES | QSYDRLPLS | En_HC | 0.94 | 6 of 6 | 0 of 18
KSSISWLYESRMKNSVA | EASTRES | QQYHRLPLS | GP_HC | -0.20 | 6 of 6 | 0 of 18
KVSQSVLYESRNKNSVA | WASTRES | QQYMQLPLS | Ctrl | 0.27 | 6 of 6 | 0 of 18
KLGQSSAMTSRNKNNVA | DLNERER | QQYHRLPLS | En_HC | -0.17 | 6 of 6 | 0 of 18
HMSMLTLQGMYHRNSVA | QMTTREN | QQYDRLPLS | En_Gen | 0.98 | 6 of 6 | 1 of 18
KSSQSDLYESRNKNSVA | GASTRES | QAYHRLTLS | GP_HC | nd | 0 of 6 | 0 of 18
HLSMLAGVESVKHNSVA | ENSTREQ | QQYDRLPLM | En_Gen | 2.69 | 6 of 6 | 1 of 18
KLRQSTLYESRNKNSVA | WPSTRIS | QQYHRLPLS | Rand | nd | 0 of 6 | 0 of 18
KLMEQFGHSMDHKNSIA | HVDMLAQ | QQYMHLPLI | En_Gibbs | 0.86 | 6 of 6 | 2 of 18

Picked from the list: the 7 lowest averages where every replicate gave a value.

CDR-L1 | CDR-L2 | CDR-L3 | group | mean log10 Kd (nM) | detected | empty controls
KVSQLVLMESRNKNSVA | EASTRES | QQYHRLPLS | GP_HC | -0.50 | 6 of 6 | 0 of 18
KLSGSMLYESRNKNSVA | DASTRES | QQYHRLPLS | GP_Gen | -0.40 | 6 of 6 | 1 of 18
RLSQSVLYESRNKNSVA | DASTRES | QQYHRLPLS | GP_HC | -0.40 | 6 of 6 | 1 of 18
KSSISWLYESRMKNSVA | EASTRES | QQYHRLPLS | GP_HC | -0.20 | 6 of 6 | 0 of 18
KMSDSVLYESRNKNSVA | AASTRES | QQYARLPLS | Ctrl | -0.17 | 6 of 6 | 3 of 18
KLGQSSAMTSRNKNNVA | DLNERER | QQYHRLPLS | En_HC | -0.17 | 6 of 6 | 0 of 18
KSPQSVLYESRNKNSVA | DASTRED | QSYHRLPLS | GP_HC | -0.16 | 6 of 6 | 2 of 18

A sequence measured in both rounds can read differently, since the two assays cover different ranges.
The parent sequence was in this pool as ten entries: three were never detected, three once, and four in most replicates, with averages from 0.34 to 2.37.
In the paper, a design with two or fewer of six values counts as a poor binder.
As a blank, each scFv also met three strains without target: over all light chain designs, 4% of these pairings were detected, typically at 2.64 and seldom below 1.59. For each scFv, signals with the empty controls are counted beside the result.

Data: MIT Lincoln Laboratory AlphaSeq set, Li et al. 2023, doi:10.1038/s41467-023-39022-2, as distributed in FLAb.